Data reported in ChEMBL document CHEMBL1121439, “Accumulation of drugs by guinea pig isolated atria. Quantitative correlations” (J Med Chem, 1980).

Species on record: Cavia porcellus
Conditions: Cardiac atrium

Log B/F: 0.362
SMILES: C[C@@H]1C[C@H]2[C@@H]3CCC4=CC(=O)C=C[C@]4(C)[C@@]3(F)[C@@H](O)C[C@]2(C)[C@@]1(O)C(=O)CO [DEXAMETHASONE]
